Source: paper PMC6221991 (Structure (London, England : 1993), 2018)

Target: T1, human PPARα (hPPARα) (Homo sapiens, UniProt Q07869)
T1 sequence (Q07869 239-466 limits assumed): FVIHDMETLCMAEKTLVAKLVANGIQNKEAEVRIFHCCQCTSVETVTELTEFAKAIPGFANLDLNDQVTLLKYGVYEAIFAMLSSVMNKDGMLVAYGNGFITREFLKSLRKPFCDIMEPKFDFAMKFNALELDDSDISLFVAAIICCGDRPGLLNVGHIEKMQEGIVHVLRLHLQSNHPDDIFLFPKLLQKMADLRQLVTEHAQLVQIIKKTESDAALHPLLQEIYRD
Experiment: PPARα GAL-4 transactivation assay in HEK293T cells
Assay type: cell-based

EC50 PPARα GAL-4: No activity
transcriptional agonism, hPPARα-Gal4 transactivation (Figure S1A): no transcriptional agonism
Structure (SMILES): CN(CCOc1ccc(CC2SC(=O)NC2=O)cc1)c1ccccn1 (centres unmarked) [Rosiglitazone]
